According to patent publication US7109329B2, “Neurologically active compounds and compounds with multiple activities” (priority 1988, dated 2006):

Assay: Activities and properties of the compounds (Table III codes listed as Specific Properties in Table IV)
Details: higher levels of activity

Substance: 3-(6-Guanidinoacetoxy-2,5,7,8-tetramethylchroman-2-carbonyl)-3-estrone ester
- Specific Properties: 19, 27 (possible injection into corpus
